What was measured:
CA I [1] = molecular target: T1, CA I (Homo sapiens, UniProt P00915); experiment: Selective protein capture using purified proteins (FIG. 31)
Carbonic II = Carbonic II (Homo sapiens, UniProt P00918); experiment: as above
[2] = tested on: other purified proteins tested; experiment: as above
Carbonic Anhydrase II = Carbonic Anhydrase II (Homo sapiens, UniProt P00918); experiment: Capture and pull-down of doped carbonic anhydrase II from HEK293 cellular fractions; settings: avidin-coated (SoftLink) resin
[3] = molecular target: Carbonic Anhydrase isoform I (Homo sapiens, UniProt P00915); experiment: Capture and isolation of Carbonic Anhydrase from lysed red blood cells, MALDI
[4] = molecular target: Carbonic Anhydrase isoform II (Homo sapiens, UniProt P00918); experiment: as above
CA II isoform = CA II isoform (Homo sapiens, UniProt P00918); settings: read-out: Kd for CA II isoform; according to literature; independently confirmed using activity assay; cited from earlier work
CA I [5] = molecular target: T1, CA I; settings: read-out: Kd for CA I; according to literature; independently confirmed using activity assay; cited from earlier work

Chains of the proteins cited; added tags and fusions are not shown.
UniProt P00915, whole entry: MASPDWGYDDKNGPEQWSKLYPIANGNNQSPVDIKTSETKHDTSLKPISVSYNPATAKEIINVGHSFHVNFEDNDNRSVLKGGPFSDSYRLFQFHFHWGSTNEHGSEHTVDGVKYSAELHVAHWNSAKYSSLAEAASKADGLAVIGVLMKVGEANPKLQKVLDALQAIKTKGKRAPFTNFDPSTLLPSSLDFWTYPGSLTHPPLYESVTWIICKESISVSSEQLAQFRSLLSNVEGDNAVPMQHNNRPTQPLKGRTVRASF

affinity and capture efficiency (CA I [1]): lower
affinity and capture efficiency (Carbonic II): highest
isolation of doped CA II from protein mixture (Carbonic Anhydrase II; FPLC purified protein mixture from HEK293): pulled out from all other proteins
isolation of doped CA II from protein mixture (Carbonic Anhydrase II; whole cytosolic extract from HEK293): pulled out from all other proteins
capture of Carbonic Anhydrase isoform I [3]: covalently captures
capture of Carbonic Anhydrase isoform II [4]: covalently captures
Compound: [N-]=[N+]=Nc1ccc(C(=O)NC(CCCCNC(=O)CCCCCNC(=O)CCCC[C@H]2SCC3NC(=O)NC32)C(=O)OCCNC(=O)c2ccc(S(N)(=O)=O)cc2)cc1 (stereo partly drawn)
affinity and capture efficiency [2]: negligible
Kd (CA II isoform): 10 nM
Kd (CA I [5]): 1000 nM

From patent US9034798B2, “Capture compounds, collections thereof and methods for analyzing the proteome and complex compositions” (CAPROTEC BIOANALYTICS GMBH, priority 2003, dated 2015)
